PMC5354670, “Blockade of the malignant phenotype by β-subunit selective noncovalent inhibition of immuno- and constitutive proteasomes” (Oncotarget, 2017)

Assays:
iCP, ChT-L activity = iCP, ChT-L activity (Homo sapiens, UniProt P28062); assay: Inhibition of ChT-L activity of iCP by oxadiazole A4 (unpublished result); conditions: read-out: IC50 ChT-L activity, iCP, R1 = 4-BrC6H4, R2 = 3,4-di-MeOC6H3
cCP, ChT-L activity = conditions: read-out: IC50 ChT-L activity, cCP; R1 = 4-BrC6H4, R2 = 3,4-di-MeOC6H3; cited from earlier work

## COc1ccc(-c2noc(CN(C(=O)COc3ccc(Br)cc3)C(C)C)n2)cc1OC
iCP, ChT-L activity
  IC50: 140 nM
cCP, ChT-L activity
  IC50: 37 nM
